The values that follow are results of earlier work, collected in the CATMoS acute toxicity set (Mansouri et al. 2021).

This series in a line: rat acute oral toxicity. The following applies: in vivo.

In the case of `Nc1ccc(Cc2ccc(N)c(Cl)c2)cc1Cl`, the LD50 was 1140 mg/kg.
For `Cc1cc2cccnc2n(-c2ccccc2)c1=O`, the LD50 is 256 mg/kg.
`COc1ccc(Cc2cnc(N)nc2N)cc1OC`: the 50% lethal dose (LD50) was 3680 mg/kg.
On to `CN1c2c(oc(=O)n(-c3ccccn3)c2=O)-c2ccccc2S1(=O)=O`, for which the LD50 is 1430 mg/kg.
`COC(=O)[C@H]1[C@H]2C[C@@H]3c4[nH]c5cc(OC)ccc5c4CCN3C[C@H]2C[C@@H](O)[C@@H]1OC`: the LD50 was 479 mg/kg.
For the compound `Cc1ccc2c(c1)CC(=O)c1cc(CC(=O)O)ccc1O2`, the LD50 was 326 mg/kg.
Consider `COc1cc(CN2CCN(C(=O)c3cc4ccccc4o3)CC2)cc(OC)c1OC`, for which the LD50 is 1000 mg/kg.
`Cc1oncc1C(=O)N1CCCCC1`: the LD50 is 1240 mg/kg.
For the compound `CC(=Cc1ccccc1)CC(=O)NCCO`, the 50% lethal dose (LD50) was 1380 mg/kg.
`CC(C)CCC(C)Nc1ccc(Nc2ccccc2)cc1` (stereo unspecified): the LD50 is 2100 mg/kg.
On to `CCN(CC)C(=O)CC(C)=Cc1ccccc1`, for which the LD50 was 2300 mg/kg.
Take `O=c1[nH]c(=O)n(C2CCCO2)cc1F` (stereo unspecified): the median lethal dose (LD50) is 930 mg/kg.
On to `CCC(C)(C)c1ccc(O)cc1`, for which the LD50 was 1830 mg/kg.
As for `C=CCn1c(=O)c2[nH]c(C)nc2n(CCCC)c1=O`, the LD50 was 24 mg/kg.
Take `Cc1ccc(C(=O)c2ccc(CC(=O)O)n2C)cc1`: the LD50 is 914 mg/kg.
With `Cc1ccc(C(=O)c2ccc(CC(=O)NCC(=O)Nc3cccc(C)c3C)n2C)cc1`, the LD50 is 1300 mg/kg.
